Experimental data reported in US8663643B2, “Combinations of an anti-HER2 antibody-drug conjugate and chemotherapeutic agents, and methods of use” (Genentech, Inc., priority 2008, dated 2014).

Tests used:
[1] = 3.6 mg/kg every 3 weeks

T-DM1
maximum tolerated dose (MTD) (IV infusion every 3 weeks): 3.6 mg/kg | DLT (Dose-Limiting Toxicity): patients with Grade 4 thrombocytopenia (treated at 4.8 mg/kg): 2 of 3 | patients requiring dose reduction [1]: 3 out of 112
